Data: US11691963B2, “6-heteroaryloxy benzimidazoles and azabenzimidazoles as JAK2 inhibitors” (Ajax Therapeutics, Inc., priority 2020, dated 2023)

Amino acid sequences for entries named in this document (tags omitted). Residues count along the entry.
UniProt O60674, 849-1124 Y1007F/Y1008F: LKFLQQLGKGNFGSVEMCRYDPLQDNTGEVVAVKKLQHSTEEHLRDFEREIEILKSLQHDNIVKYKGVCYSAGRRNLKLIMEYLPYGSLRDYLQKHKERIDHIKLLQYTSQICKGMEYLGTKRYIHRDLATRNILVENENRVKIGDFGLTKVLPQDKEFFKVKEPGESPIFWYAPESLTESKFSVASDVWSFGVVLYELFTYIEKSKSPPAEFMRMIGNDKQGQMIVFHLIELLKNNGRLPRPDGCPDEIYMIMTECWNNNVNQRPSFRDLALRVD

Each compound was assayed against JAK2 (JH1domain-catalytic, Y1007F,Y1008F) kinase (Homo sapiens (Human), UniProt O60674, Y1007F/Y1008F) (assay: biochemical).

SMILES	Kd [nM]
CNC(=O)c1cc(Oc2cnc3nc(Nc4cc(C(C)(C)C)n([C@@H]5CCOC5)n4)n(C)c3c2)ccn1 [Example I-105, (R)-4-((2-((5-(tert-butyl)-1-(tetrahydrofuran-3-yl)-1H-pyrazol-3-yl)amino)-1-methyl-1H-imidazo[4,5-b]pyridin-6-yl)oxy)-N-methylpicolinamide]	50 to 1000
CNC(=O)c1cc(Oc2cnc3nc(Nc4cc(C(C)(C)C)n([C@H]5CCOC5)n4)n(C)c3c2)ccn1 [Example I-106, (S)-4-((2-((5-(tert-butyl)-1-(tetrahydrofuran-3-yl)-1H-pyrazol-3-yl)amino)-1-methyl-1H-imidazo[4,5-b]pyridin-6-yl)oxy)-N-methylpicolinamide]	50 to 1000
CC(=O)Nc1cc(Oc2cnc3nc(Nc4cc(C(C)(C)C)n(C5CCN(CCF)CC5)n4)n(C)c3c2)ccn1 [Example I-113, N-(4-((2-((5-(tert-butyl)-1-(1-(2-fluoroethyl)piperidin-4-yl)-1H-pyrazol-3-yl)amino)-1-methyl-1H-imidazo[4,5-b]pyridin-6-yl)oxy)pyridin-2-yl)acetamide]	10 to 50
CC(=O)Nc1cc(Oc2cnc3nc(Nc4cc(C(C)(C)C)n(C[C@H]5CN(C)CCO5)n4)n(C)c3c2)ccn1 [Example I-143]	10 to 50
CC(=O)Nc1cc(Oc2cnc3nc(Nc4cc(C(C)(C)C)n(C[C@@H]5CN(C)CCO5)n4)n(C)c3c2)ccn1 [Example I-144]	10 to 50
COCCN1CC[C@H](n2nc(Nc3nc4ncc(Oc5ccnc(NC(=O)C6CC6)c5)cc4n3C)cc2C(C)(C)C)C1 [Example I-173, (S)—N-(4-((2-((5-(tert-butyl)-1-(1-(2-methoxyethyl)pyrrolidin-3-yl)-1H-pyrazol-3-yl)amino)-1-methyl-1H-imidazo[4,5-b]pyridin-6-yl)oxy)pyridin-2-yl)cyclopropanecarboxamide]	10 to 50
COCCN1CC[C@@H](n2nc(Nc3nc4ncc(Oc5ccnc(NC(=O)C6CC6)c5)cc4n3C)cc2C(C)(C)C)C1 [Example I-174, (R)—N-(4-((2-((5-(tert-butyl)-1-(1-(2-methoxyethyl)pyrrolidin-3-yl)-1H-pyrazol-3-yl)amino)-1-methyl-1H-imidazo[4,5-b]pyridin-6-yl)oxy)pyridin-2-yl)cyclopropanecarboxamide]	50 to 1000
Cn1c(Nc2cc(C(C)(C)C)n([C@@H]3CCN(CCF)C3)n2)nc2ncc(Oc3ccnc(NC(=O)C4CC4)c3)cc21 [Example I-180, (R)—N-(4-((2-((5-(tert-butyl)-1-(1-(2-fluoroethyl)pyrrolidin-3-yl)-1H-pyrazol-3-yl)amino)-1-methyl-1H-imidazo[4,5-b]pyridin-6-yl)oxy)pyridin-2-yl)cyclopropanecarboxamide]	10 to 50
COc1c(Oc2ccnc(NC(=O)C3CC3)c2)cnc2nc(Nc3cc(C4CC4)cn(C)c3=O)n(C)c12 [Example I-191, N-(4-((2-((5-cyclopropyl-1-methyl-2-oxo-1,2-dihydropyridin-3-yl)amino)-7-methoxy-1-methyl-1H-imidazo[4,5-b]pyridin-6-yl)oxy)pyridin-2-yl)cyclopropanecarboxamide]	< 10
CC(=O)Nc1cc(Oc2cnc3nc(Nc4ccc(CN5CCOCC5)c(C(F)(F)F)c4)n(C)c3c2Cl)ccn1 [Example I-205, N-(4-((7-chloro-1-methyl-2-((4-(morpholinomethyl)-3-(trifluoromethyl)phenyl)amino)-1H-imidazo[4,5-b]pyridin-6-yl)oxy)pyridin-2-yl)acetamide]	10 to 50
CC(=O)Nc1cc(Oc2cnc3nc(Nc4cc(C5CC5)cn(C)c4=O)n(C)c3c2C#N)ccn1 [Example I-207, N-(4-((7-cyano-2-((5-cyclopropyl-1-methyl-2-oxo-1,2-dihydropyridin-3-yl)amino)-1-methyl-1H-imidazo[4,5-b]pyridin-6-yl)oxy)pyridin-2-yl)acetamide]	10 to 50
CC(=O)Nc1cc(Oc2cnc3nc(Nc4cc5n(n4)CCCC5(C)C)n(C)c3c2C#N)ccn1 [Example I-209, N-(4-((7-chloro-2-((4,4-dimethyl-4,5,6,7-tetrahydropyrazolo[1,5-c]pyridin-2-yl)amino)-1-methyl-1H-imidazo[4,5-b]pyridin-6-yl)oxy)pyridin-2-yl)acetamide]	< 10
CC(=O)Nc1cc(Oc2cnc3nc(Nc4cc(C(F)(F)F)cn(C)c4=O)n(C)c3c2C#N)ccn1 [Example I-211]	< 10

Continued, values first:

Kd [nM]	SMILES
< 10	CC(=O)Nc1cc(Oc2cnc3nc(Nc4cc5n(n4)CCCC5(C)C)n(C)c3c2)ccn1 [Example I-104, N-(4-((2-((4,4-dimethyl-4,5,6,7-tetrahydropyrazolo[1,5-c]pyridin-2-yl)amino)-1-methyl-1H-imidazo[4,5-b]pyridin-6-yl)oxy)pyridin-2-yl)acetamide]
< 10	Cn1c(Nc2cc(C(C)(C)C)n([C@@H]3CCOC3)n2)nc2ncc(Oc3ccnc(NC(=O)C4CC4)c3)cc21 [Example I-109, (R)—N-(4-((2-((5-(tert-butyl)-1-(tetrahydrofuran-3-yl)-1H-pyrazol-3-yl)amino)-1-methyl-1H-imidazo[4,5-b]pyridin-6-yl)oxy)pyridin-2-yl)cyclopropanecarboxamide]
< 10	Cn1c(Nc2cc(C(C)(C)C)n([C@H]3CCOC3)n2)nc2ncc(Oc3ccnc(NC(=O)C4CC4)c3)cc21 [Example I-110, (S)—N-(4-((2-((5-(tert-butyl)-1-(tetrahydrofuran-3-yl)-1H-pyrazol-3-yl)amino)-1-methyl-1H-imidazo[4,5-b]pyridin-6-yl)oxy)pyridin-2-yl)cyclopropanecarboxamide]
< 10	COCCC(=O)Nc1cc(Oc2cnc3nc(Nc4cc(C(C)(C)C)n([C@@H]5CCOC5)n4)n(C)c3c2)ccn1 [Example I-118, (R)—N-(4-((2-((5-(tert-butyl)-1-(tetrahydrofuran-3-yl)-1H-pyrazol-3-yl)amino)-1-methyl-1H-imidazo[4,5-b]pyridin-6-yl)oxy)pyridin-2-yl)-3-methoxypropanamide]
< 10	CC(=O)Nc1cc(Oc2cnc3nc(Nc4cc(C(C)(C)C)n([C@H]5C[C@H](O)C5)n4)n(C)c3c2C)ccn1 [Example I-122, N-(4-((2-((5-(tert-butyl)-1-((1r,3r)-3-hydroxycyclobutyl)-1H-pyrazol-3-yl)amino)-1,7-dimethyl-1H-imidazo[4,5-b]pyridin-6-yl)oxy)pyridin-2-yl)acetamide]
< 10	CC(=O)Nc1cc(Oc2cnc3nc(Nc4cc(C(C)(C)C)n([C@H]5C[C@@H](O)C5)n4)n(C)c3c2C)ccn1 [Example I-123, N-(4-((2-((5-(tert-butyl)-1-((1s,3s)-3-hydroxycyclobutyl)-1H-pyrazol-3-yl)amino)-1,7-dimethyl-1H-imidazo[4,5-b]pyridin-6-yl)oxy)pyridin-2-yl)acetamide]
< 10	CC(=O)Nc1cc(Oc2cnc3nc(Nc4cc(C(C)(C)C)n(CCF)n4)n(C)c3c2)ccn1 [Example I-130, N-(4-((2-((5-(tert-butyl)-1-(2-fluoroethyl)-1H-pyrazol-3-yl)amino)-1-methyl-1H-imidazo[4,5-b]pyridin-6-yl)oxy)pyridin-2-yl)acetamide]
< 10	CC(=O)Nc1cc(Oc2cnc3nc(Nc4cc(C(C)(C)C)n(CC(F)F)n4)n(C)c3c2)ccn1 [Example I-132, N-(4-((2-((5-(tert-butyl)-1-(2,2-difluoroethyl)-1H-pyrazol-3-yl)amino)-1-methyl-1H-imidazo[4,5-b]pyridin-6-yl)oxy)pyridin-2-yl)acetamide]
< 10	CC(=O)Nc1cc(Oc2cnc3nc(Nc4cc(C(C)(C)C)n(CCC#N)n4)n(C)c3c2C)ccn1 [Example I-136, N-(4-((2-((5-(tert-butyl)-1-(2-cyanoethyl)-1H-pyrazol-3-yl)amino)-1,7-dimethyl-1H-imidazo[4,5-b]pyridin-6-yl)oxy)pyridin-2-yl)acetamide]
< 10	COCCN1CC[C@@H](n2nc(Nc3nc4ncc(Oc5ccnc(NC(=O)C6CC6)c5)c(Cl)c4n3C)cc2C(C)(C)C)C1 [Example I-182, (R)—N-(4-((2-((5-(tert-butyl)-1-(1-(2-methoxyethyl)pyrrolidin-3-yl)-1H-pyrazol-3-yl)amino)-7-chloro-1-methyl-1H-imidazo[4,5-b]pyridin-6-yl)oxy)pyridin-2-yl)cyclopropanecarboxamide]
< 10	COc1c(Oc2ccnc(NC(C)=O)c2)cnc2nc(Nc3cc(C(C)(C)C)n(CC(F)F)n3)n(C)c12 [Example I-188, N-(4-((2-((5-(tert-butyl)-1-(2,2-difluoroethyl)-1H-pyrazol-3-yl)amino)-7-methoxy-1-methyl-1H-imidazo[4,5-b]pyridin-6-yl)oxy)pyridin-2-yl)acetamide]
